OPERA 2.9 data: melting point values

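The numbers are reported measurements, compiled and curated for the OPERA QSAR suite. A listed value is a point estimate from one report or more. Conditions of the individual experiments are not part of the data. A value may pool stereoisomers or salt forms, and the file does not say which form was measured. Some entries may be limits or estimates that an upstream database listed as plain numbers.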

The melting point is given in degrees Celsius. The databases behind each value are named after "via".

SMILES	MP (°C)	via
CS(=O)(=O)Nc1nc(CC(=O)O)cs1	180	OCHEM
O=C(O)CNc1ncccn1	170	OCHEM
O=C(O)C1CSC(c2cccs2)N1 (stereo unspecified)	149	OCHEM
CCOc1cc(C=O)ccc1O[C@@H]1O[C@H](CO)[C@@H](O)[C@H](O)[C@H]1O	206	eChemPortal
Cc1ccc(N=C=S)c([N+](=O)[O-])c1	64.5	OCHEM
CCC(CC)(CBr)CBr	39.5	OCHEM
C[C@H](CCC(=O)NCCS(=O)(=O)O)[C@H]1CC[C@H]2[C@@H]3[C@H](O)C[C@@H]4C[C@H](O)CC[C@]4(C)[C@H]3C[C@H](O)[C@]12C	125	PubChem
N#CCc1csc(-c2ccccc2)n1	58	OCHEM
COc1ccc(N2CCN(c3ccc([N+](=O)[O-])cc3)CC2)cc1	193	eChemPortal
COC(=O)C(=O)CC(=O)c1ccncc1	94	OCHEM
O=C(O)CCCc1nc2ccccc2s1	149	OCHEM
CC[N+]1(C)CCCC1.[Br-]	298.9	eChemPortal
COc1ccc(CCNC(N)=S)cc1OC	160	OCHEM
CCCCCCCCCCCCCOC(=O)c1ccc(C(=O)OCCCCCCCCCCCCC)c(C(=O)OCCCCCCCCCCCCC)c1	-17	eChemPortal
C=C(C)C(=O)NCOCCCC	-8	eChemPortal
O=C(O)COc1ccc(F)cc1Br	143	OCHEM
Cc1cc(C(O)(C(F)(F)F)C(F)(F)F)ccc1N	135.5	ChemicalBook
Cc1nc2ncnn2c(C)c1CCC(=O)O	225	OCHEM
C[N+](C)(CCO)CCCNC(=O)C(O)C(O)C(O)C(O)CO.[Cl-] (stereo unspecified)	-21.8	eChemPortal
Cc1ccc(C(=O)Nc2ccc(S(=O)(=O)[O-])cc2)cc1N.[Na+]	274	eChemPortal
CCCCCCCCCCCC(=O)OCCC(C)C	-18.5	eChemPortal
O=C(Nc1ccccc1)Nc1ccccc1NS(=O)(=O)c1ccccc1	158	eChemPortal
S=c1[nH]nc(-c2ccc3c(c2)OCO3)o1	180	OCHEM
O=C(O)C1CC(=O)N(CCc2ccccc2)C1 (stereo unspecified)	189	OCHEM
Cc1ccc2nc3ccccc3c(Cl)c2c1	122	OCHEM
CCCCNc1c(N)n(CCC)c(=O)[nH]c1=O	202	OCHEM
CC(C)c1ccccc1-n1cc[nH]c1=S	175	OCHEM
CCCCCCCC/C=C\CCCCCCCCNCCCNCCCN	17	eChemPortal
O=[N+]([O-])c1cc(Cl)c(N=Nc2ccc(N(CCO)CCO)cc2Cl)c(Br)c1	153.9	eChemPortal
Nn1cnc2ccccc21	148	OCHEM
O=C(O)CCCn1c(=O)oc2ccccc21	142	OCHEM
COc1ccc(C(C)=O)cc1CC(=O)O	123	OCHEM
Cc1cccc(-c2n[nH]c(=S)o2)c1	159	OCHEM
O=[N+]([O-])c1ccc2oc(=S)[nH]c2c1	242	OCHEM
Cc1[nH]c2ccc(F)cc2c1CC(=O)O	181	OCHEM
COc1cc(C=O)cc(Br)c1OCc1ccccc1	49	OCHEM
CNCc1cccc(O)c1	145	OCHEM
CCON	-38.2	eChemPortal
ClCC12CC3CC(CC(C3)C1)C2	40	OCHEM
C[C@@H]1CCN(c2nc3cc(Cl)ccc3o2)CCN1.Cl	225.5	eChemPortal
COC(=O)C(=O)CC(=O)c1ccc(F)cc1	130	OCHEM
O=C(O)Cc1csc2nc(-c3ccccc3)cn12	221	OCHEM
Fc1ccc(C(c2ccc(F)cc2)C(Cl)Cl)cc1	77	OCHEM
CC(C)(C)OC(=O)N1CCN(C(N)=O)CC1	176	OCHEM
Cc1ccc(F)c(O)c1Cl	48.5	OCHEM
C=CCOc1ccc(S(=O)(=O)c2ccc(O)cc2)cc1	173.1	eChemPortal
CN(CCO)c1ccc(N=Nc2c(Cl)cc([N+](=O)[O-])cc2Cl)cc1	127	OCHEM
CCOc1ccc(-c2ccc(C3CCC(CC)CC3)cc2)c(F)c1F (stereo unspecified)	77.6	eChemPortal
Cc1cccc2nc(CCl)cc(=O)n12	121	OCHEM
CC(O)C(F)(F)F (stereo unspecified)	-52	QSARDB
Nn1cnc2ccc(Br)cc2c1=O	231	OCHEM
Cc1ccn(NC=O)n1	125	OCHEM
Cc1n[nH]c(C)c1CCC(=O)O	170	OCHEM
O=C(O)CCCN1C(=O)c2cccc3cccc(c23)C1=O	87	OCHEM

Excerpt, the opening 5 entries:

| SMILES | MP (°C) | via |
|---|---|---|
| CS(=O)(=O)Nc1nc(CC(=O)O)cs1 | 180 | OCHEM |
| O=C(O)CNc1ncccn1 | 170 | OCHEM |
| O=C(O)C1CSC(c2cccs2)N1 (stereo unspecified) | 149 | OCHEM |
| CCOc1cc(C=O)ccc1O[C@@H]1O[C@H](CO)[C@@H](O)[C@H](O)[C@H]1O | 206 | eChemPortal |
| Cc1ccc(N=C=S)c([N+](=O)[O-])c1 | 64.5 | OCHEM |

Source: data files of OPERA 2.9 (Mansouri et al.), github.com/kmansouri/OPERA.